# Reference: patent publication US9284315B2, “Three-ring PI3K and/or mTOR inhibitor” (XUANZHU PHARMA CO., LTD., priority 2011, dated 2016)
# The chains behind the UniProt entries cited, without tags or fusion partners.
# UniProt P42336, whole entry: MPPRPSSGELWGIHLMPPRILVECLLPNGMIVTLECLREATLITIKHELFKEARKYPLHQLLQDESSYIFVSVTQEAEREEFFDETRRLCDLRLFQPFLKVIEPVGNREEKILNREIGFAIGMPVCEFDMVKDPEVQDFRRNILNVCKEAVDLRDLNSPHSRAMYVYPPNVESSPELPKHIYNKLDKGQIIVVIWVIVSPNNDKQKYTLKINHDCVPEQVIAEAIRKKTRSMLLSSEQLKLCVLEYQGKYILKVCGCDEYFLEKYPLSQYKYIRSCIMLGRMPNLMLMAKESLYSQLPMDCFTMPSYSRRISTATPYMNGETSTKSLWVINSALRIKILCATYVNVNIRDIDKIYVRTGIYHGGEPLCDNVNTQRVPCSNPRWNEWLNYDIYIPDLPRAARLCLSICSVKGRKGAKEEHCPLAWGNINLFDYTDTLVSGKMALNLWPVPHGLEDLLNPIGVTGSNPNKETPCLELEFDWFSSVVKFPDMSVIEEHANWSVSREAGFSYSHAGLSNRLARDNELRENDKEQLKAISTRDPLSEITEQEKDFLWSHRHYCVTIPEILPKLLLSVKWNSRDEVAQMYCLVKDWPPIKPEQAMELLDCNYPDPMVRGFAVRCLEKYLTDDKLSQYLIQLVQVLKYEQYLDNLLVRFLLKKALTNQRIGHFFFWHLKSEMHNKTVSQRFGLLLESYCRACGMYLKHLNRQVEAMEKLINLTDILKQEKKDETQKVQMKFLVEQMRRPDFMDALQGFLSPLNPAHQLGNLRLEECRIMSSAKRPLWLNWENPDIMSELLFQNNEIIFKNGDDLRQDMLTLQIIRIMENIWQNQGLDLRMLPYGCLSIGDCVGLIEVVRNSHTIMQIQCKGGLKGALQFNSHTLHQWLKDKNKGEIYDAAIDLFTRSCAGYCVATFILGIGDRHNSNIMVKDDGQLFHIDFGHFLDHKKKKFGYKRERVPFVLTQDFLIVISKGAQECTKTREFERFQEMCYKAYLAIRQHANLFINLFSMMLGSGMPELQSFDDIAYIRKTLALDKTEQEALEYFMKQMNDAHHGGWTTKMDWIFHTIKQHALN
# UniProt P27986, whole entry partner: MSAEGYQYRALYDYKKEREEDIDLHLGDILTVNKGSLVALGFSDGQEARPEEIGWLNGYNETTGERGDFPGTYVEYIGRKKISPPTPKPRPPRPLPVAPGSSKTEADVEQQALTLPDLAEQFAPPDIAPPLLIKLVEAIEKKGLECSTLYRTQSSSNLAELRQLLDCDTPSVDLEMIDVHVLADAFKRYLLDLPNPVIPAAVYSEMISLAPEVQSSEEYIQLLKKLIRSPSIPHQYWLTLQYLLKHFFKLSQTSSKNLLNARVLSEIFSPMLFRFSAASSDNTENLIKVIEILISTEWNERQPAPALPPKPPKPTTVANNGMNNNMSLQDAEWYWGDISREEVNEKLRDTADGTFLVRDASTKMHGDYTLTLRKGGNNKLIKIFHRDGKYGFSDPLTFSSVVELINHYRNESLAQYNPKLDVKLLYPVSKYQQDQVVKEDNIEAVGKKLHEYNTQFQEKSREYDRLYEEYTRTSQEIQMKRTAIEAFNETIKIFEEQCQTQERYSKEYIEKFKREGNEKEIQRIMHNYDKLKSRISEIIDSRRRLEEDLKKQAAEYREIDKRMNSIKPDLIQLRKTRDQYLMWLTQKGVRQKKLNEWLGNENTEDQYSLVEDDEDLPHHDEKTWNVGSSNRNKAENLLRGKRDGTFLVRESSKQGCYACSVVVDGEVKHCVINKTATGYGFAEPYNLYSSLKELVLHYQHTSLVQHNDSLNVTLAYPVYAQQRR
# How the values were obtained:
# mTOR = mTOR (Homo sapiens (Human), UniProt P42345); test: Method 2 binding assay, mTOR kinase tracer 314; conditions: read-out: mTOR IC50
# PI3Kα = PI3Kα (Homo sapiens (Human), UniProt P42336); test: Method 2 binding assay, PI3Kα kinase tracer 1710; conditions: read-out: PI3Kα IC50
# [1] = In vivo pharmacokinetics in rats, intravenous bolus injection (IV); conditions: 2 mg/kg
# [2] = In vivo pharmacokinetics in rats, gavage (PO)
substance,measurement,setting,value
"9-(6-methoxypyridin-3-yl)-3-methyl-1-(piperidin-4-yl)-3,4-dihydropyrimido[5,4-c][1,5]naphthyridin-2(1H)-one hydrochloride",IC50,mTOR,91.9 nM
same,IC50,PI3Kα,8.6 nM
same,AUC,[1],217.7 ng·h/mL
same,Cl_obs,[1],123 mL/min/kg
same,T ½,[1],3.47 h
same,Vss_obs,[1],36.26 L/kg
same,F %,[2]; PO 4 mg/kg vs IV 2 mg/kg,59%
same,AUC,"[2]; PO, 4 mg/kg",258 ng·h/mL
same,Cmax,"[2]; PO, 4 mg/kg",46.8 ng/mL
same,Tmax,"[2]; PO, 4 mg/kg",4.67 h

# This is a selection: effects in other tests are not listed, and their absence says nothing.
